The target in this experiment is T1, Histone-lysine N-methyltransferase NSD3 (Homo sapiens, UniProt Q9BZ95).
T1 sequence (Q9BZ95 whole entry): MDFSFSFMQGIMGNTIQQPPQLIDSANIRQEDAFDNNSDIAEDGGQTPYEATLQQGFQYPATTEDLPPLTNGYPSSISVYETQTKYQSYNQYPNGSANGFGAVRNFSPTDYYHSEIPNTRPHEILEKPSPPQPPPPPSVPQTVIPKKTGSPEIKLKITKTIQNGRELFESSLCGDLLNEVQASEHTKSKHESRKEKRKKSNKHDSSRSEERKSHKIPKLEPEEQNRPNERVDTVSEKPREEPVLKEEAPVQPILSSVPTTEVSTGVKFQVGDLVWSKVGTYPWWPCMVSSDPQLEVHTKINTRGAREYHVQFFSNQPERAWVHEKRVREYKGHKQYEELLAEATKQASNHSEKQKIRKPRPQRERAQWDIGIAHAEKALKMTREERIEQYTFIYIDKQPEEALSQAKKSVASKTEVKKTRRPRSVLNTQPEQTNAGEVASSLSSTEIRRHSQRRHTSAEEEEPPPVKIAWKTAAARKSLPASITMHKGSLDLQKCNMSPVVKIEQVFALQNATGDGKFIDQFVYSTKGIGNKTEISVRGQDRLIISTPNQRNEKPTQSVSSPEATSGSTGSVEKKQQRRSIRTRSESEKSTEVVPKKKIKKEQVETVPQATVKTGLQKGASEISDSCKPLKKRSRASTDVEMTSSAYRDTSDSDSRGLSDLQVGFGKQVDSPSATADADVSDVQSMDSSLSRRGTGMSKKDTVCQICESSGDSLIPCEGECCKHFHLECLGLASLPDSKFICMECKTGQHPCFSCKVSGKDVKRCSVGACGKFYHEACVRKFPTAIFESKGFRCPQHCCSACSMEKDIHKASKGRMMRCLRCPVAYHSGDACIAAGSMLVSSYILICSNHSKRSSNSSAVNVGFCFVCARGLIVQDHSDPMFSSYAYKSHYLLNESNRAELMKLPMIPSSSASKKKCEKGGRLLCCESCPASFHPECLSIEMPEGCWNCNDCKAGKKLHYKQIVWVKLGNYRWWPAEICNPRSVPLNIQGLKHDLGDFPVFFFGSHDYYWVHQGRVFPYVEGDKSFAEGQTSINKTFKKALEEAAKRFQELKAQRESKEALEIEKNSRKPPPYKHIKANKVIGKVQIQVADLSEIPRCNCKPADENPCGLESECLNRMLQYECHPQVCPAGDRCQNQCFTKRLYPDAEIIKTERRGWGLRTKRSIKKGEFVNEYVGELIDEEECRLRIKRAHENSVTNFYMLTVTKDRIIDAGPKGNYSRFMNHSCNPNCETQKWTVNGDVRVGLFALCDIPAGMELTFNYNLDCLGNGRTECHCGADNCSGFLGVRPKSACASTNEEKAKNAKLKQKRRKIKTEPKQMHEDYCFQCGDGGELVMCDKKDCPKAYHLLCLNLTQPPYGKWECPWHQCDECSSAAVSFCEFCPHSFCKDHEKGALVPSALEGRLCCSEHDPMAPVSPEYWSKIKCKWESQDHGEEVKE
The experiment is described as follows: Binding affinity to human NSD3 PWWP1 domain (247 to 398 residues) assessed as dissociation constant by SPR analysis. (In general: Surface plasmon resonance follows binding to a sensor surface in real time, without labels.)

The structures appear in SMILES notation.

As usually defined, the Kd is the free concentration of one partner at which half of the binding sites on the other are occupied at equilibrium, for simple one-to-one binding. Consider `Cc1cc(CN)cc(C)c1-c1ncn(C)c1-c1ccnc2cc(F)ccc12`, for which the Kd turned out to be 445 nM.

The values above are taken from ChEMBL document CHEMBL5579817, “Recent advances in targeting histone H3 lysine 36 methyltransferases for cancer therapy” (Eur J Med Chem, 2024).
